Experimental data reported in patent publication US20040248211A1, “ICAM-related protein” (priority 1992, published 2004).

Test system: SCID mice engrafted with human T cells
Assay: Graft-versus-host disease in Hu-PBMC/SCID chimeras

B1: ICR-8.1: anti-ICAM-R monoclonal antibody, IgG1, domain 1, ATCC HB 11232 (antibody, V domains shown)
VH: EIQLQQTGPELVKPGASVKISCKASGYSFTDCIILWVKQSHGKGLEWIGKINPYFGTTTYNLKFKGKATLTVDKSSSTAHMQLNSLTSEDSAVYYCARKEAYPDAMDYWGQGTSVTVSS
VL: DAVMTQTPLSLPVSLGDQASISCRSSQSLVHSNGDTYLHWYLQKPGQSPQLLIYKVSNRFSGVPDRFSGSGSGTDFTLKLSRVEAEDLGVYFCSQSTHVPYTFGGGTKLEIK
Q: What does the source list for B1?
A: human T-cell infiltration and splenic repopulation (5 mg/mouse i.v. three times weekly): reduced human T-cell infiltration without preventing splenic repopulation; animals developing lethal GVHD within fifty days after transplant (5 mg/mouse i.v. three times weekly from day eleven, PBS group 7 of 11 (64%) died): 0/12
